Where two headings read alike, the source gives them in different places.
Columns and labels:
XcMetRS P257L mutant [1] = target: T1, XcMetRS P257L mutant (Xanthomonas citri pv. citri, UniProt Q8PMP0, P257L)
[2] = target: T2, XcMetRS Y237L/P257L mutant (Xanthomonas citri pv. citri, UniProt Q8PMP0, P257L/Y237L); assay type: binding; parameters: His tag with TEV site (from pET28-TEV vector) (N); made in house; host or cells: E. coli BL21(DE3)
[3] = target: T2, XcMetRS Y237L/P257L mutant
XcMetRS P257L mutant [4] = target: T1, XcMetRS P257L mutant; assay type: binding; parameters: His tag with TEV site (from pET28-TEV vector) (N); made in house; host or cells: E. coli BL21(DE3)
XcMetRS Y237L mutant [5] = target: T3, XcMetRS Y237L mutant (Xanthomonas citri pv. citri, UniProt Q8PMP0, Y237L)
XcMetRS Y237L mutant [6] = target: T3, XcMetRS Y237L mutant; assay type: binding; parameters: His tag with TEV site (from pET28-TEV vector) (N); made in house; host or cells: E. coli BL21(DE3); settings: for Tm increase: Y237L mutant, ligand alone; for Tm: Y237L
[7] = target: T2, XcMetRS Y237L/P257L mutant; assay type: biochemical; parameters: His tag with TEV site (from pET28-TEV vector) (N); made in house; host or cells: E. coli BL21(DE3)
XcMetRS Y237L mutant [8] = target: T3, XcMetRS Y237L mutant; assay type: biochemical; parameters: His tag with TEV site (from pET28-TEV vector) (N); made in house; host or cells: E. coli BL21(DE3)
XcMetRS P257L mutant [9] = target: T1, XcMetRS P257L mutant; assay type: biochemical; parameters: His tag with TEV site (from pET28-TEV vector) (N); made in house; host or cells: E. coli BL21(DE3)
[10] = read-out: KM^app, L-Met varied, ATP 2 mM

SMILES	Tm ([2]; ligand 25 µM)	Tm ([2]; ligand + ATP:Mg)	Tm (XcMetRS P257L mutant [4]; ligand 25 µM)	Tm (XcMetRS P257L mutant [4]; ligand + ATP:Mg)	Tm increase (XcMetRS Y237L mutant [6])	Tm (XcMetRS Y237L mutant [6]; ligand 25 µM)	Tm (XcMetRS Y237L mutant [6]; ligand + ATP:Mg)	Tm ([2]; ligand 5 mM)	Tm (XcMetRS P257L mutant [4]; ligand 5 mM)	Tm (XcMetRS Y237L mutant [6]; ligand 5 mM)	also measured
C=C(F)c1sc(CNCCCNc2cc(O)c3ccccc3n2)c(C)c1Br [REP8839]	39,3 ± 0,3 ^oC	42,6 ± 0,4 ^oC	55,1 ± 0,1 ^oC	58,3 ± 0,2 ^oC	~26 °C	56,1 ± 0,1 ^oC	57,3 ± 0,5 ^oC	–	–	–	IC50 (XcMetRS P257L mutant [1]): > 100 µM; IC50 (XcMetRS P257L mutant [1]; P257L mutant, 30 μM L-Met, 5 mM ATP): insensitive; IC50 [3]: 32.8 ± 2.7 µM; IC50 fold higher than parental enzyme ([3]; Y237L/P257L mutant vs WT): ~2 fold; IC50 (XcMetRS Y237L mutant [5]): 1.9 ± 0.2 µM; IC50 fold lower than WT enzyme (XcMetRS Y237L mutant [5]; Y237L mutant vs WT): approximately 10 fold
Nc1ncnc2c1ncn2[C@@H]1O[C@H](COP(=O)(O)OP(=O)(O)OP(=O)(O)O)[C@@H](O)[C@H]1O [ATP]	–	–	–	–	–	–	–	39,3 ± 0,3 ^oC	58,7 ± 0,3 ^oC	32,3 ± 0,2 ^oC	kcat ([7]; ATP as varied substrate): 0.0338 ± 0.0013 s⁻¹; K’ ([7]; ATP varied, L-Met 200 μM): 1.81 ± 0.29 mM; kcat (XcMetRS Y237L mutant [8]; ATP as varied substrate): 0.0035 ± 0.00017 s⁻¹; K’ (XcMetRS Y237L mutant [8]; ATP varied, L-Met 200 μM): 1.16 ± 0.26 mM; kcat (XcMetRS P257L mutant [9]; ATP as varied substrate): 0.0663 ± 0.00367 s⁻¹; h (Hill slope) (XcMetRS P257L mutant [9]; ATP varied): 1.6; K’ (XcMetRS P257L mutant [9]; ATP varied, L-Met 200 μM): 2.43 ± 0.30 mM
CSCC[C@H](N)C(=O)O [L-Met, L-methionine]	–	–	–	–	–	–	–	47,4 ± 0,1 ^oC	64,3 ± 0,1 ^oC	34,1 ± 0,7 ^oC	kcat ([7]; L-Met as varied substrate): 0.0582 ± 0.001 s⁻¹; Km [7, 10]: 39 ± 2 µM; kcat (XcMetRS Y237L mutant [8]; L-Met as varied substrate): 0.0012 ± 0.00017 s⁻¹; Km (XcMetRS Y237L mutant [8]; [10]): 23.5 ± 0.9 µM; kcat (XcMetRS P257L mutant [9]; L-Met as varied substrate): 0.0302 ± 0.0005 s⁻¹; Km (XcMetRS P257L mutant [9]; [10]): 21.8 ± 1.3 µM
O=c1cc(NCCCN[C@@H]2CCOc3c(Br)cc(Br)cc32)[nH]c2ccsc12 [REP3123]	35,4 ± 0,5 ^oC	47,4 ± 0,1 ^oC	55,9 ± 0,1 ^oC	59 ± 0,1 ^oC	approximately 14 °C	44,3 ± 1,6 ^oC	47,3 ± 0,9 ^oC	–	–	–	–

Source: paper PMC8165550, “Molecular basis for diaryldiamine selectivity and competition with tRNA in a type 2 methionyl-tRNA synthetase from a Gram-negative bacterium” (The Journal of Biological Chemistry, 2021)
